Values quoted from earlier work, collected in patent US20060293323A1, “Therapeutic Combinations of erb B Kinase Inhibitors and Antineoplastic Therapies” (priority 2002, published 2006).
Where two headings read alike, the source gives them in different places.

Legend:
[1] = cited from earlier work
253JB-V human bladder = conditions: grown orthotopically in athymic nude mice; cited from earlier work
[2] = tested on: variety of human tumor cell lines; conditions: cited from earlier work
[3] = tested on: BT-474 human breast carcinoma; conditions: cited from earlier work

For “C-225: monoclonal antibody directed against the EGF receptor”, the “antitumor activity of combination with topotecan” value (from here on “antitumor activity of combination”) ([1]; C225 given first) is listed as “markedly suppressed”, the “antitumor activity of combination” value ([1]; topotecan first, antibody one day later) is listed as “greatest effect” and the “antitumor activity of combination” value ([1]; two drugs given simultaneously) is listed as “Activity was less”. For the same substance, the “effect on antitumor effects of paclitaxel” value (253JB-V human bladder) was “enhance the antitumor effects of paclitaxel”.

In the case of “Herceptin: monoclonal antibody which specifically neutralizes erbB-2”, the “effect on activity of paclitaxel in vitro” value [2] is given as “enhanced the activity of paclitaxel” and the “effect on activity of paclitaxel in vivo” value [3] is given as “enhanced the activity of paclitaxel”.
